The values that follow come from ChEMBL document CHEMBL3259633 (J Med Chem, 2014).

For experiment [1], the species on record is Mus musculus. Description: animal or person. Conditions: Swiss, Abdomen, sc, 5 min.
The species named for experiment [2] is Mus musculus. As to the kind of experiment: animal or person. The note with it: Swiss, sc.

`CO[C@@]12CC[C@@]3(C[C@@H]1[C@](C)(O)C(C)(C)C)[C@H]1Cc4ccc(O)c5c4[C@@]3(CCN1CC1CC1)[C@H]2O5` [BUPRENORPHINE]: the 50% effective dose (ED50) in the experiment listed under Mus musculus [1] came out at 0.16 mg/kg; in the experiment filed under Mus musculus [2], 0.07 mg/kg.
